These are literature values, as cited in PMC4987652 (Scientific Reports, 2016).

Amino acid sequences for entries named in this document (tags omitted).
UniProt P35372, whole entry, looked up: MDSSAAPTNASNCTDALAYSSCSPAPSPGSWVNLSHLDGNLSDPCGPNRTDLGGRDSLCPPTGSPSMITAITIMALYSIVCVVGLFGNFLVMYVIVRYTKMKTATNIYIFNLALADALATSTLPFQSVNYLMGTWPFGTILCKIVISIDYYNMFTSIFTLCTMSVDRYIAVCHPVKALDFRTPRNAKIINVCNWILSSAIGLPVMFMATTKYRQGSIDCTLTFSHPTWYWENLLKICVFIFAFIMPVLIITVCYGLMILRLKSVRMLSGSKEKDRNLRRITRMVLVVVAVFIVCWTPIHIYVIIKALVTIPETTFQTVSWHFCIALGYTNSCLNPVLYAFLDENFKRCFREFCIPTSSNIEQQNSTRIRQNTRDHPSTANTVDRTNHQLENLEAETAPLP

This series has as its target human MOR (Homo sapiens, UniProt P35372). The following applies: read-out: Kd of radioligand, MOR; assay condition of the binding assay; ref MDS Pharma Services; cited from earlier work.

As to `CO[C@]12CC[C@@]3(C[C@@H]1C(C)(C)O)[C@H]1Cc4ccc(O)c5c4[C@@]3(CCN1CC1CC1)[C@H]2O5`, the dissociation constant Kd (in general, the equilibrium constant for the complex coming apart) is 0.41 nM.
